# Laboratory results: publication PMC5884906, “Single Administration of HBK-15—a Triple 5-HT1A, 5-HT7, and 5-HT3 Receptor Antagonist—Reverses Depressive-Like Behaviors in Mouse Model of Depression Induced by Corticosterone” (Molecular Neurobiology, 2017)
# Amino acid sequences for entries named in this document (tags omitted). Residues count along the entry.
# UniProt O70212, 20-490: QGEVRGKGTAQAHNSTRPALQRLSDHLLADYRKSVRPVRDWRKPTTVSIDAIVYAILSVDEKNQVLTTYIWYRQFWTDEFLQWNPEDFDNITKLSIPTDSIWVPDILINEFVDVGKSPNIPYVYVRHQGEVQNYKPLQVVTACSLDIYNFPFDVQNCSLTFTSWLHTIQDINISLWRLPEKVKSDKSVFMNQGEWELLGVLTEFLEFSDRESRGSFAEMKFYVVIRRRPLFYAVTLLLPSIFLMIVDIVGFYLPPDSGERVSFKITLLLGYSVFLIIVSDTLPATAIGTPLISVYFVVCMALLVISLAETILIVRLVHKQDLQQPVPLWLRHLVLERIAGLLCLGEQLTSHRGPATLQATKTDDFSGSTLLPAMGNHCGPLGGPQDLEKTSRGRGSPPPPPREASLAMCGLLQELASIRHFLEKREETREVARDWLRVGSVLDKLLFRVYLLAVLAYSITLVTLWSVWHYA
# Target: T1, 5-HT3 receptors expressed in guinea pig ileum (Cavia porcellus, UniProt O70212)
# T1 construct: A segment (15 cm) of male guinea pig ileum was excised from the small intestine; from tissue; host or cells: isolated male guinea pig ileum segments in an organ bath
# Assay: guinea pig ileum contractions induced by serotonin
# Assay type: biochemical
structure (smiles),measurement,value
"NCCc1c[nH]c2ccc(O)cc12 [Serotonin, reference compound]",EC50,1120 nM
